# From PMC9604483, “Crystal Structure of CYP3A4 Complexed with Fluorol Identifies the Substrate Access Channel as a High-Affinity Ligand Binding Site” (International Journal of Molecular Sciences, 2022)
# Sequences of proteins named here, by UniProt entry; tags and fusion partners are left off. A line that says so, or that is headed by a name, gives the form on record, which may keep a tag or linker.
# UniProt P08684, with tags, fused parts or gaps: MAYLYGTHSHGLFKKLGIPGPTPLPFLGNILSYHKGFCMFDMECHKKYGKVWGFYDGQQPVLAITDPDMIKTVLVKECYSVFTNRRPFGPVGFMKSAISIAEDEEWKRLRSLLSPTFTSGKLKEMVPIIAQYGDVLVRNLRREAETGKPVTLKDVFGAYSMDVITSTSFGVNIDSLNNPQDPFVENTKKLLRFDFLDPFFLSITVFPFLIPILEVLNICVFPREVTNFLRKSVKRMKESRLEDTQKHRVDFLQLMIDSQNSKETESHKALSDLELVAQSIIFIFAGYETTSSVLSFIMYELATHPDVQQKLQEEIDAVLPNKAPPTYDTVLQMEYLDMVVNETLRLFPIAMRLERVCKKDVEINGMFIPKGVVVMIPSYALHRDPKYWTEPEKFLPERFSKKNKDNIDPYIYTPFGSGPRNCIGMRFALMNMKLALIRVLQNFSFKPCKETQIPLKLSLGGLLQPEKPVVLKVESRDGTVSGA
# Target: T1, WT CYP3A4 (Homo sapiens, UniProt P08684)
# T1 construct: made in house
# Assay: Equilibrium absorbance titrations of CYP3A4 with progesterone
# Format: binding
# Details: 2 μM WT CYP3A4
smiles,measurement,value
CC(=O)[C@H]1CC[C@H]2[C@@H]3CCC4=CC(=O)CC[C@]4(C)[C@H]3CC[C@]12C [progesterone],Hill coefficient (nH),1.56
